Reference: patent publication US20220064672A1, “ENGINEERED ONCOLYTIC VIRUSES EXPRESSING PD-L1 INHIBITORS AND USES THEREOF” (priority 2020, published 2022)

System: IFNγ-treated, PD-L1-expressing tumor cells (MC38)
Test: ADCC Reporter Bioassay
Type: cell-based, mouse
Conditions: IFNγ-treated MC38 target cells
Experimental: ADCC assay: A total of 1×10^4/well target cells MC38 or IFNγ-stimulated MC38 cells were seeded in a 96-well plate 1 day before the experiment. On the day of experiment, different amounts of PBS, IgG Fc (Thermo, cat. no.: 31205) or purified iPDL1 were added into wells containing target MC38 cells followed by the addition of 6×10^4 ADCC bioassay effector cells per well that were provided in the ADCC Reporter Bioassays kit (Promega, Madison, Wis.). After incubation for 6 h at 37° C., the plates were kept on the bench for 15 min. Then each well was added with 75 μL of Bio-Glo Luciferase reagent and kept at RT for 10 min. Luminescence values were measured using a plate reader with glow-type luminescence read capabilities.

B1: iPDL1: murine soluble PD-1 extracellular domain fused with IgG1 Fc as a PD-L1 inhibitor, SEQ ID NO:2 (protein)
chain: MWVRQVPWSFTWAVLQLSWQSGWLLEVPNGPWRSLTFYPAWLTVSEGANATFTCSLSNWSEDLMLNWNRLSPSNQTEKQAAFCNGLSQPVQDARFQIIQLPNRHDFHMNILDTRRNDSGIYLCGAISLHPKAKIEESPGAELVVTERILETSTRYPSPSPKPEGRFQPRGPTIKPCPPCKCPAPNLLGGPSVFIFPPKIKDVLMISLSPIVTCVVVDVSEDDPDVQISWFVNNVEVHTAQTQTHREDYNSTLRVVSALPIQHQDWMSGKEFKCKVNNKDLPAPIERTISKPKGSVRAPQVYVLPPPEEEMTKKQVTLTCMVTDFMPEDIYVEWTNNGKTELNYKNTEPVLDSDGSYFMYSKLRVEKKNWVERNSYSCSVVHEGLHNHHTTKSFSRTPGK
modifications: Mouse
**Q.** With B1 as the molecule, how does the “antibody-dependent cell-mediated cytotoxicity (ADCC)” value read?
**A.** efficiently mediated antibody-dependent cell-mediated cytotoxicity
